Experiments:
Conditions in all cases: strain Wistar
Aorta [1] = experiment: Vasodilatory activity in Wistar rat endothelium-denuded thoracic aortic ring assessed as inhibition of phenylephrine-induced contraction
Aorta [2] = experiment: Vasodilatory activity in Wistar rat endothelium-denuded thoracic aortic ring assessed as inhibition of phenylephrine-induced contraction drug treated 30 mins after ALDH2 inhibitor benomyl treatment
Aorta [3] = experiment: Vasodilatory activity in Wistar rat endothelium-denuded cross tolerant thoracic aortic ring assessed as inhibition of phenylephrine-induced contraction preincubated with 0.55 mM GTN for 1 hr followed by washing
Aorta [4] = experiment: Vasodilatory activity in Wistar rat endothelium-denuded thoracic aortic ring assessed as inhibition of phenylephrine-induced contraction drug treated 30 mins after 1 uM soluble guanylate cyclase heme site inhibitor ODQ treatment
Aorta [5] = experiment: Vasodilatory activity in Wistar rat endothelium-denuded thoracic aortic ring assessed as inhibition of phenylephrine-induced contraction drug treated 30 mins after ALDH2 inhibitor chloral hydrate treatment

| SMILES | EC50 (Aorta [1]) | EC50 (Aorta [2]) | EC50 (Aorta [3]) | EC50 (Aorta [4]) | EC50 (Aorta [5]) |
| --- | --- | --- | --- | --- | --- |
| O=[N+]([O-])OC[C@@H](O[N+](=O)[O-])[C@@H](O[N+](=O)[O-])c1ccccc1 | 0.29 µM | 0.36 µM | 0.78 µM | 21 µM |  |
| O=[N+]([O-])OC[C@H](O[N+](=O)[O-])[C@H](O[N+](=O)[O-])c1ccccc1 | 0.21 µM | 0.32 µM | 0.61 µM | 18 µM |  |
| O=[N+]([O-])OC[C@H](O[N+](=O)[O-])[C@@H](O[N+](=O)[O-])c1ccccc1 | 0.28 µM | 0.32 µM | 1 µM | 30 µM | 0.21 µM |
| O=[N+]([O-])OC[C@@H](O[N+](=O)[O-])[C@H](O[N+](=O)[O-])c1ccccc1 | 0.22 µM | 0.35 µM | 0.65 µM | 22 µM | 0.27 µM |

From ChEMBL document CHEMBL1136934, “Synthesis of some novel organic nitrates and comparative in vitro study of their vasodilator profile” (J Med Chem, 2009)
